The text below walks through data of PubChem BioAssay AID2528 (National Center for Advancing Translational Sciences (NCATS), 2010).

The chains behind the UniProt entries cited, without tags or fusion partners. Where a name states a change or a piece, a line headed by the entry shows the natural chain unless it says otherwise.
UniProt P54132: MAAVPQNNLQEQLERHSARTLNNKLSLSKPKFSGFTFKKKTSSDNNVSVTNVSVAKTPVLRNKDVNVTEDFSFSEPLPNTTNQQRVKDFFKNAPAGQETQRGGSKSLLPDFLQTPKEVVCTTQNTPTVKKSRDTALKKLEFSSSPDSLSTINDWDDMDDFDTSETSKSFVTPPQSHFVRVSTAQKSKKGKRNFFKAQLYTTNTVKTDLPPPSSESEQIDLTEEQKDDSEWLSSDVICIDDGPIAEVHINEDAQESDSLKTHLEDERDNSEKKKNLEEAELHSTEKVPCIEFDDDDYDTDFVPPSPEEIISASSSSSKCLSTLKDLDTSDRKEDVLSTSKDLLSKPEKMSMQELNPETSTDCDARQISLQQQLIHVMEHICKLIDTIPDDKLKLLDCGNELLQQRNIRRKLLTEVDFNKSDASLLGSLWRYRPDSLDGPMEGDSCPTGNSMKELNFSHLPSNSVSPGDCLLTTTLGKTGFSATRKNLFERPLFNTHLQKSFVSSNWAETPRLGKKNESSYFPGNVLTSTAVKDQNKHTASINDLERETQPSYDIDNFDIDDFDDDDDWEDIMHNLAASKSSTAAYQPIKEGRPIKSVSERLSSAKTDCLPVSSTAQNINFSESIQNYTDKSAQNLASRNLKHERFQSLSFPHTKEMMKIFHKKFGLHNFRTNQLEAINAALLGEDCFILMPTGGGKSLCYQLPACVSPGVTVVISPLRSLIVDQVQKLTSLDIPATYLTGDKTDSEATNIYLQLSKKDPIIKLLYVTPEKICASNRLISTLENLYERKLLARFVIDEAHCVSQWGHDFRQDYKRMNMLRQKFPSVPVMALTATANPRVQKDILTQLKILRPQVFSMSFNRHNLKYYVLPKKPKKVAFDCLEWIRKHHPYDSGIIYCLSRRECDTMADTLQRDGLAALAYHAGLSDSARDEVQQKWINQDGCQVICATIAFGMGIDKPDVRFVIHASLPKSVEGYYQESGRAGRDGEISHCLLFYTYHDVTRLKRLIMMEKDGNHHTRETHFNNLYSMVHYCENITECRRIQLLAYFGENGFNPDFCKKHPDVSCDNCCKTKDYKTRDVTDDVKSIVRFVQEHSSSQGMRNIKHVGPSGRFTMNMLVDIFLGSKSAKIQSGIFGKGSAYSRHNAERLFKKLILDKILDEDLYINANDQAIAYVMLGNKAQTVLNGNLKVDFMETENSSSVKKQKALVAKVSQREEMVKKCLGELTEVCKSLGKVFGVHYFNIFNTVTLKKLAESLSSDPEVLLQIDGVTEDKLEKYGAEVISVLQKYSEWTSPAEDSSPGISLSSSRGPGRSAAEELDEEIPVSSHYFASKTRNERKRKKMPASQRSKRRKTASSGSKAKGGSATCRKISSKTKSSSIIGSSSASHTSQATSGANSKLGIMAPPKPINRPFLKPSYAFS

Where “and” joins values, the source holds several entries; their conditions need not be identical. Identical values can stand only once. This is a selection; strong and weak results do not stand in their true shares. Calls of active or inactive are those of the source. The call rests on the fitted dose curve; in most records, active means well fitted inhibition curve with a large enough effect; inconclusive means small, poorly fitted or top-dose-only effect; inactive means flat fitted curve, though single readings scatter.

In this assay the target is RecQ-like DNA helicase BLM (Homo sapiens) (UniProt P54132). As to the kind of experiment: qHTS Assay for Inhibitors of Bloom's syndrome helicase (BLM).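 Further: plate controls were vehicle for no effect and no enzyme for full effect; nearly all actives have a fitted effect of over 35% in size.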 The following applies: recombinant BLM DNA unwinding, fluorescence dequenching; at 56.1 µM (top of the series) unless noted.
On to `CC(=O)N1C2C3N(C(C)=O)C1C1N(C(C)=O)C(C(N1C(C)=O)N3C(C)=O)N2C(C)=O`, for which the activity change, negative = inhibition is inactive: -1.69%.
Take `O=[N+]([O-])c1cccc2n[nH]nc12`: the activity change, negative = inhibition was inactive: -2.07%.
Turning to `Cc1ccc(NP(=O)(Oc2ccccc2)Oc2ccccc2)nc1`, the activity change, negative = inhibition is inactive: -0.528%.
`O=[N+]([O-])c1cc([N+](=O)[O-])c(CCNc2ccccc2)c([N+](=O)[O-])c1`: the activity change, negative = inhibition is inactive: -14.5%.
Regarding `CCc1nc2c(n1)c1c(non1O)c1c2no[n+]1[O-]`, the activity change, negative = inhibition is inactive: -1.86%.
On to `COc1ccc(C2=NCC(CBr)S2)cc1` (stereo not drawn), for which the activity change, negative = inhibition is inactive: 0.789%.
For `CC(C)=N/N=C(\N)N[N+](=O)[O-]` the value was inactive: 2.09%; for `CN(C)C(=O)OCCc1n(C)cc[n+]1C`, inactive: 1.24%.
To `CC(=O)C1=CCCC2CCC1N2` (stereo not drawn) belongs inactive: 0.914%; to `CC1CCN(C(=O)Oc2c(Cl)cc(Cl)c3cccnc23)CC1`, inactive: -5.73%; to `Nc1ccc([As](=O)(O)c2ccc(N)cc2)cc1`, inactive: -6.97%.
On to `CCN(/C(=N/P(=O)(N1CCOCC1)N1CCOCC1)N1CCOCC1)c1ccc(OC)cc1`, for which the activity change, negative = inhibition was inactive: 0.747%.
For `O=C(Nc1cc([As](=O)(O)O)ccc1O)c1ccccc1` the value was inactive: -3.15%; for `O=[N+]([O-])c1cccc(NC2=NCC(CBr)S2)c1` (stereo not drawn), inactive: -4.49%; for `O=C(O)CNc1ccc([As](=O)(O)O)cc1`, inactive: -2.09%.
For the compound `CC(C)(C)C(=O)NC(Sc1ccncn1)C(Cl)(Cl)Cl` (stereo not drawn), the activity change, negative = inhibition was inactive: -2.72%.
Consider `O=[N+]([O-])c1ncn(CCn2ncnc2[N+](=O)[O-])n1`, for which the activity change, negative = inhibition is inactive: 1.17%.
Consider `Cc1cc(SC(NC(=O)c2ccc(F)cc2)C(Cl)(Cl)Cl)ncn1` (stereo not drawn), for which the activity change, negative = inhibition is inactive: 1.97%.
As for `CCOP(=O)(Nc1ccccc1)OCC`, the activity change, negative = inhibition is inactive: -3.12% and inactive: -5.16%.
In the case of `CN(C(=O)Cc1ccc(Cl)c(Cl)c1)[C@H]1CCCC[C@@H]1N1CCCC1`, the activity change, negative = inhibition was inactive: 2.53% [middle of 4 runs].
Take `Cc1ccc(NP(=O)(Oc2ccccc2F)Oc2ccccc2F)nc1`: the activity change, negative = inhibition is inactive: 0.118%.
On to `CC(=O)Nc1ccc([As](=O)(O)O)cc1`, for which the activity change, negative = inhibition was inactive: -1.79%.
With `O=C(O)c1ccccc1[As](=O)(O)O`, the activity change, negative = inhibition is inactive: -0.342%.
Turning to `O=P(Nc1nc2ccc(Cl)cc2s1)(c1ccccc1)c1ccccc1`, the activity change, negative = inhibition is inactive: -8.75%.
As to `CCN(N=Nc1nonc1N)c1nonc1N`, the activity change, negative = inhibition is inactive: -9.87%.
As for `Nc1cccc2ccc([As](=O)(O)O)cc12`, the activity change, negative = inhibition is inactive: -7.47%.
For `O=[N+]([O-])c1cc([N+](=O)[O-])c(CCN2CCOCC2)c([N+](=O)[O-])c1`, the activity change, negative = inhibition was inactive: -19.2%.
To `COc1ccccc1OP(=O)(Nc1ccc(C)cn1)Oc1ccccc1OC` belongs inactive: -3.49%.
